Measurements published in publication PMC8409973, “Synthesis, antiproliferative and antitrypanosomal activities, and DNA binding of novel 6-amidino-2-arylbenzothiazoles” (Journal of Enzyme Inhibition and Medicinal Chemistry, 2021).

Tested on: L6 cells (a rat myoblast line)
Assay: L6 cell proliferation (cytotoxicity, resazurin)
Assay type: cell-based

CS(=O)(=O)O.Clc1ccc(-n2cc(-c3nc4ccc(C5=NCCCN5)cc4s3)nn2)cc1 [15b, 6-(3,4,5,6-Tetrahydropyrimidin-1-ium-2-yl)-2-[1-(4-chlorophenyl)-1H-1,2,3-triazole-4-yl]benzothiazole methanesulfonate]
SI IC50 (L6/Tb): 6.9

N=C(N)c1ccc2nc(-c3ccc(OCc4cn(-c5ccc(Cl)cc5)nn4)cc3)sc2c1 [10b]
SI IC50 (L6/Tb): 2.7

CS(=O)(=O)O.Clc1ccc(-n2cc(COc3nc4ccc(C5=NCCCN5)cc4s3)nn2)cc1 [12b, 6-(3,4,5,6-Tetrahydropyrimidin-1-ium-2-yl)-2-[(1-(4-Chlorophenyl)-1H-1,2,3-triazol-4-yl]methoxy)benzothiazole methanesulfonate]
SI IC50 (L6/Tb): 2.5
